Results reported in PubChem BioAssay (NCI).
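Five concentrations, 48 hours, 96-well plates. GI50 = concentration required for 50% inhibition of growth. TGI: total growth inhibition.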

Key:
Assay in all cases: NCI anticancer screen, dose series, 48 h
M14 melanoma = test system: M14 melanoma
NCI-H322M lung = test system: NCI-H322M lung
CCRF-CEM leukemia = test system: CCRF-CEM leukemia
NCI/ADR-RES ovarian = test system: NCI/ADR-RES ovarian
T-47D breast = test system: T-47D breast
EKVX NSCLC = test system: EKVX NSCLC
MALME-3M melanoma = test system: MALME-3M melanoma
HT29 colon = test system: HT29 colon
OVCAR-4 ovarian = test system: OVCAR-4 ovarian
MDA-N = test system: MDA-N
MOLT-4 leukemia = test system: MOLT-4 leukemia
UACC-257 melanoma = test system: UACC-257 melanoma
A549 NSCLC = test system: A549 NSCLC
DU-145 prostate = test system: DU-145 prostate
HS 578T breast = test system: HS 578T breast
SN12C renal = test system: SN12C renal
NCI-H23 lung = test system: NCI-H23 lung
SK-MEL-28 melanoma = test system: SK-MEL-28 melanoma
OVCAR-8 ovarian = test system: OVCAR-8 ovarian
K-562 leukemia = test system: K-562 leukemia
NCI-H460 lung = test system: NCI-H460 lung
SR leukemia = test system: SR leukemia
CAKI-1 renal = test system: CAKI-1 renal
UO-31 renal = test system: UO-31 renal
BT-549 breast = test system: BT-549 breast
HOP-92 NSCLC = test system: HOP-92 NSCLC
HL-60(TB) leukemia = test system: HL-60(TB) leukemia
PC-3 prostate = test system: PC-3 prostate
MDA-MB-435 = test system: MDA-MB-435
NCI-H226 lung = test system: NCI-H226 lung
SF-295 CNS = test system: SF-295 CNS
HCC-2998 colon = test system: HCC-2998 colon
HOP-62 NSCLC = test system: HOP-62 NSCLC
NCI-H522 lung = test system: NCI-H522 lung
786-0 renal = test system: 786-0 renal
SNB-19 CNS = test system: SNB-19 CNS
RXF 393 renal = test system: RXF 393 renal
SW-620 colon = test system: SW-620 colon
SF-268 CNS = test system: SF-268 CNS
LOX IMVI melanoma = test system: LOX IMVI melanoma
OVCAR-3 ovarian = test system: OVCAR-3 ovarian
A498 renal = test system: A498 renal
SK-MEL-2 melanoma = test system: SK-MEL-2 melanoma
MDA-MB-231 breast = test system: MDA-MB-231 breast
OVCAR-5 ovarian = test system: OVCAR-5 ovarian
SK-MEL-5 melanoma = test system: SK-MEL-5 melanoma
UACC-62 melanoma = test system: UACC-62 melanoma
HCT-15 colon = test system: HCT-15 colon
IGROV1 ovarian = test system: IGROV1 ovarian
ACHN renal = test system: ACHN renal
TK-10 renal = test system: TK-10 renal
HCT-116 colon = test system: HCT-116 colon
KM12 colon = test system: KM12 colon
U251 CNS = test system: U251 CNS

Question: How did the GI50 (M14 melanoma) turn out when NS(=O)(=O)Cc1ccc([As](=O)(O)O)cc1 was run?
Answer: > 100 µM

Question: And the TGI (M14 melanoma)?
Answer: > 100 µM

Question: What about the GI50 (NCI-H322M lung) of the same compound?
Answer: > 100 µM

Question: What about the TGI (NCI-H322M lung) of the same compound?
Answer: > 100 µM

Question: What about the GI50 (CCRF-CEM leukemia) of the same compound?
Answer: > 100 µM

Question: What about the TGI (CCRF-CEM leukemia) of the same compound?
Answer: > 100 µM

Question: And the GI50 (NCI/ADR-RES ovarian)?
Answer: > 100 µM

Question: And the TGI (NCI/ADR-RES ovarian)?
Answer: > 100 µM

Question: And the GI50 (T-47D breast)?
Answer: > 100 µM

Question: And the TGI (T-47D breast)?
Answer: > 100 µM

Question: What about the GI50 (EKVX NSCLC) of the same compound?
Answer: > 100 µM

Question: What about the TGI (EKVX NSCLC) of the same compound?
Answer: > 100 µM

Question: And the GI50 (MALME-3M melanoma)?
Answer: > 100 µM

Question: What about the TGI (MALME-3M melanoma) of the same compound?
Answer: > 100 µM

Question: And the GI50 (HT29 colon)?
Answer: > 100 µM

Question: What about the TGI (HT29 colon) of the same compound?
Answer: > 100 µM

Question: And the GI50 (OVCAR-4 ovarian)?
Answer: > 100 µM

Question: And the TGI (OVCAR-4 ovarian)?
Answer: > 100 µM

Question: And the GI50 (MDA-N)?
Answer: > 100 µM

Question: And the TGI (MDA-N)?
Answer: > 100 µM

Question: What about the GI50 (MOLT-4 leukemia) of the same compound?
Answer: > 100 µM

Question: And the TGI (MOLT-4 leukemia)?
Answer: > 100 µM

Question: And the GI50 (UACC-257 melanoma)?
Answer: > 100 µM

Question: And the TGI (UACC-257 melanoma)?
Answer: > 100 µM

Question: And the GI50 (A549 NSCLC)?
Answer: > 100 µM

Question: And the TGI (A549 NSCLC)?
Answer: > 100 µM

Question: What about the GI50 (DU-145 prostate) of the same compound?
Answer: > 100 µM

Question: And the TGI (DU-145 prostate)?
Answer: > 100 µM

Question: And the GI50 (HS 578T breast)?
Answer: > 100 µM

Question: What about the TGI (HS 578T breast) of the same compound?
Answer: > 100 µM

Question: And the GI50 (SN12C renal)?
Answer: > 100 µM

Question: What about the TGI (SN12C renal) of the same compound?
Answer: > 100 µM

Question: And the GI50 (NCI-H23 lung)?
Answer: > 100 µM

Question: And the TGI (NCI-H23 lung)?
Answer: > 100 µM

Question: And the GI50 (SK-MEL-28 melanoma)?
Answer: > 100 µM

Question: And the TGI (SK-MEL-28 melanoma)?
Answer: > 100 µM

Question: And the GI50 (OVCAR-8 ovarian)?
Answer: > 100 µM

Question: What about the TGI (OVCAR-8 ovarian) of the same compound?
Answer: > 100 µM

Question: And the GI50 (K-562 leukemia)?
Answer: > 100 µM

Question: What about the TGI (K-562 leukemia) of the same compound?
Answer: > 100 µM

Question: What about the GI50 (NCI-H460 lung) of the same compound?
Answer: > 100 µM

Question: And the TGI (NCI-H460 lung)?
Answer: > 100 µM

Question: What about the GI50 (SR leukemia) of the same compound?
Answer: > 100 µM

Question: What about the TGI (SR leukemia) of the same compound?
Answer: > 100 µM

Question: And the GI50 (CAKI-1 renal)?
Answer: > 100 µM

Question: What about the TGI (CAKI-1 renal) of the same compound?
Answer: > 100 µM

Question: What about the GI50 (UO-31 renal) of the same compound?
Answer: > 100 µM

Question: And the TGI (UO-31 renal)?
Answer: > 100 µM

Question: And the GI50 (BT-549 breast)?
Answer: > 100 µM

Question: What about the TGI (BT-549 breast) of the same compound?
Answer: > 100 µM

Question: And the GI50 (HOP-92 NSCLC)?
Answer: > 100 µM

Question: What about the TGI (HOP-92 NSCLC) of the same compound?
Answer: > 100 µM

Question: And the GI50 (HL-60(TB) leukemia)?
Answer: > 100 µM

Question: And the TGI (HL-60(TB) leukemia)?
Answer: > 100 µM

Question: And the GI50 (PC-3 prostate)?
Answer: > 100 µM

Question: And the TGI (PC-3 prostate)?
Answer: > 100 µM

Question: And the GI50 (MDA-MB-435)?
Answer: > 100 µM

Question: What about the TGI (MDA-MB-435) of the same compound?
Answer: > 100 µM

Question: And the GI50 (NCI-H226 lung)?
Answer: > 100 µM

Question: What about the TGI (NCI-H226 lung) of the same compound?
Answer: > 100 µM

Question: What about the GI50 (SF-295 CNS) of the same compound?
Answer: > 100 µM

Question: What about the TGI (SF-295 CNS) of the same compound?
Answer: > 100 µM

Question: And the GI50 (HCC-2998 colon)?
Answer: > 100 µM

Question: What about the TGI (HCC-2998 colon) of the same compound?
Answer: > 100 µM

Question: What about the GI50 (HOP-62 NSCLC) of the same compound?
Answer: > 100 µM

Question: And the TGI (HOP-62 NSCLC)?
Answer: > 100 µM

Question: And the GI50 (NCI-H522 lung)?
Answer: > 100 µM

Question: And the TGI (NCI-H522 lung)?
Answer: > 100 µM

Question: And the GI50 (786-0 renal)?
Answer: > 100 µM

Question: And the TGI (786-0 renal)?
Answer: > 100 µM

Question: And the GI50 (SNB-19 CNS)?
Answer: > 100 µM

Question: And the TGI (SNB-19 CNS)?
Answer: > 100 µM

Question: And the GI50 (RXF 393 renal)?
Answer: > 100 µM

Question: And the TGI (RXF 393 renal)?
Answer: > 100 µM

Question: What about the GI50 (SW-620 colon) of the same compound?
Answer: > 100 µM

Question: What about the TGI (SW-620 colon) of the same compound?
Answer: > 100 µM

Question: What about the GI50 (SF-268 CNS) of the same compound?
Answer: > 100 µM

Question: What about the TGI (SF-268 CNS) of the same compound?
Answer: > 100 µM

Question: What about the GI50 (LOX IMVI melanoma) of the same compound?
Answer: > 100 µM

Question: And the TGI (LOX IMVI melanoma)?
Answer: > 100 µM

Question: And the GI50 (OVCAR-3 ovarian)?
Answer: > 100 µM

Question: And the TGI (OVCAR-3 ovarian)?
Answer: > 100 µM

Question: And the GI50 (A498 renal)?
Answer: > 100 µM

Question: What about the TGI (A498 renal) of the same compound?
Answer: > 100 µM

Question: What about the GI50 (SK-MEL-2 melanoma) of the same compound?
Answer: > 100 µM

Question: What about the TGI (SK-MEL-2 melanoma) of the same compound?
Answer: > 100 µM

Question: What about the GI50 (MDA-MB-231 breast) of the same compound?
Answer: > 100 µM

Question: What about the TGI (MDA-MB-231 breast) of the same compound?
Answer: > 100 µM

Question: And the GI50 (OVCAR-5 ovarian)?
Answer: > 100 µM

Question: And the TGI (OVCAR-5 ovarian)?
Answer: > 100 µM

Question: And the GI50 (SK-MEL-5 melanoma)?
Answer: > 100 µM

Question: And the TGI (SK-MEL-5 melanoma)?
Answer: > 100 µM

Question: And the GI50 (UACC-62 melanoma)?
Answer: > 100 µM

Question: What about the TGI (UACC-62 melanoma) of the same compound?
Answer: > 100 µM

Question: And the GI50 (HCT-15 colon)?
Answer: > 100 µM

Question: What about the TGI (HCT-15 colon) of the same compound?
Answer: > 100 µM

Question: What about the GI50 (IGROV1 ovarian) of the same compound?
Answer: > 100 µM

Question: And the TGI (IGROV1 ovarian)?
Answer: > 100 µM

Question: What about the GI50 (ACHN renal) of the same compound?
Answer: > 100 µM

Question: What about the TGI (ACHN renal) of the same compound?
Answer: > 100 µM

Question: What about the GI50 (TK-10 renal) of the same compound?
Answer: > 100 µM

Question: What about the TGI (TK-10 renal) of the same compound?
Answer: > 100 µM

Question: What about the GI50 (HCT-116 colon) of the same compound?
Answer: > 100 µM

Question: What about the TGI (HCT-116 colon) of the same compound?
Answer: > 100 µM

Question: And the GI50 (KM12 colon)?
Answer: > 100 µM

Question: And the TGI (KM12 colon)?
Answer: > 100 µM

Question: And the GI50 (U251 CNS)?
Answer: > 100 µM

Question: And the TGI (U251 CNS)?
Answer: > 100 µM
